{
  "source": "PubChem BioAssay AID2016",
  "about": "(NMMLSC, 2009)",
  "note": "This is a selection; strong and weak results do not stand in their true shares. Active and inactive are the calls of the source.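 The calls were made as follows: active = GFP response versus DMSO above a set limit, roughly screen mean plus 3 SD (cut at about 180% in these data); inconclusive = fewer than 70 cells counted for a yeast strain; inactive = the rest.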",
  "data": [
    {"test": "TOR pathway GLN3 branch reporter MEP2-GFP changes – S. cerevisiae, multiplex flow cytometry, MLPCN library, primary screen (AID 2016);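 also: median GFP fluorescence of the barcode-gated MEP2-GFP cells per well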", "settings": "S. cerevisiae MEP2-GFP strain, 3 h, at 10 µM, stronger effect = higher value, 100% = DMSO control level", "values": [
      {"smiles": "CCC(=O)N(c1ccccc1)C1(COC)CCN(CCn2nnn(CC)c2=O)CC1", "GFP response vs DMSO": "inactive: 96.6%"},
      {"smiles": "CCC(=O)N(c1ccccc1)C1(COC)CCN(CCc2cccs2)CC1", "GFP response vs DMSO": "inactive: 102%"}
    ]}
  ]
}
